## Antibody variant affinities, Ab-14 light chain, assay B

From the AlphaSeq antibody data of Li et al. 2023 (doi:10.1038/s41467-023-39022-2), copy in the FLAb collection.

All variants were tested on one target, the spike HR2 peptide PDVDLGDISGINAS (SARS-CoV-2).

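The parent was found by panning a naive human phage display library on the peptide. Designed CDR sequences, proposed from the first random library and measured here. Several design methods are mixed in this list. In AlphaSeq, yeast of one mating type display the scFv and yeast of the other type display the target. After mating in shaken culture at 30 °C for 16 h, diploids were selected and their barcode pairs sequenced. Each replicate has its own calibration line, from reference interactions of the BCL2 family. The assay was run in six technical replicates.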

Ab-14 is the parent antibody, in scFv form: VH, then three GGGGS repeats, then VL. The heavy chain is unchanged in all variants.
VH: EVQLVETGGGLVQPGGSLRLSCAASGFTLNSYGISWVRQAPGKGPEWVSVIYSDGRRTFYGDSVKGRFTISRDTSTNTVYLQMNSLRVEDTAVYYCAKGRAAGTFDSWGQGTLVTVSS
VL: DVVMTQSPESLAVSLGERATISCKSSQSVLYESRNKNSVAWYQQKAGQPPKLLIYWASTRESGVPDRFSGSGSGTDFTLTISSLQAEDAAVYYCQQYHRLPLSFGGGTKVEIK

The parent's light chain CDRs are KSSQSVLYESRNKNSVA, WASTRES, QQYHRLPLS; each variant's own CDRs replace them letter for letter. This list holds designs with more than six substitutions. Each Kd is an estimate from the mating assay, the geometric mean of the replicates in which the pair was seen; lower is stronger. An entry "no signal" has no value in the source: the pair was not observed among the diploids in any replicate. This suggests poor binding but is not conclusive. Entries are sorted by rising average, undetected variants last. Empty control strains, which show no peptide, gave a signal in 4% of pairings with all light chain designs; the median was 430 nM and 95% of these signals were weaker than 38 nM. No background was subtracted. The control count says in how many pairings with the empty strains this scFv gave a signal. The authors averaged sequences with at least three values out of six and counted those with two or fewer as poor binders. A sequence measured in both rounds can read differently, since the two assays cover different ranges.

| CDR-L1 | CDR-L2 | CDR-L3 | Kd | detected | empty controls |
|---|---|---|---|---|---|
| KIDQWKLGESRNKNSVA | DASQRMS | QQYHRLPLS | 290 pM | 6 of 6 | 1 of 18 |
| ALSQSMDMTSRNKNNVA | DLSTREN | QQYHRLPLS | 500 pM | 6 of 6 | 1 of 18 |
| RLNVFQNAITQQNNNIA | QANQKVH | QQYMRLPLY | 540 pM | 6 of 6 | 0 of 18 |
| KLSQSDGYQARNSNSVA | HASTRED | QQYHRLPLS | 750 pM | 6 of 6 | 0 of 18 |
| LMSQSELLESRNHNSVA | DASTRMD | QQYHRLPLS | 750 pM | 6 of 6 | 0 of 18 |
| KLSSVTGHMSMAKNNVA | EMVTREN | QQYNRLPLS | 1.0 nM | 6 of 6 | 1 of 18 |
| TLSQSMDTTSRNVNSVA | DLTTRGN | QQYHRLPLS | 1.2 nM | 6 of 6 | 3 of 18 |
| QIYQAMHNLMQKKNNVA | DVNERGQ | QQYFRLPLS | 1.2 nM | 6 of 6 | 0 of 18 |
| KVSPSVLYESLNKNSVA | QASTREK | QQIHRHPLS | 1.6 nM | 6 of 6 | 1 of 18 |
| TISTSMRYESSLKNAIA | NAQTRED | QQYHRLPLS | 1.6 nM | 6 of 6 | 0 of 18 |
| KVSQQYLYGDRNANSVA | NASTRED | QQYHRLPLS | 1.6 nM | 6 of 6 | 3 of 18 |
| QIQFESEVGYKDKNSMA | DSECKAA | QQYFQLPLM | 1.6 nM | 6 of 6 | 2 of 18 |
| MFPQEVMYEQHFKNNVA | QTSTREP | QQYDHLPLS | 1.7 nM | 6 of 6 | 3 of 18 |
| HISMMVGTKGYAKNSVA | NEETRAD | QQYHRLPLS | 1.7 nM | 6 of 6 | 0 of 18 |
| KLSMEVLMEQRNHNSVA | SANTREE | QQYHRLPLS | 1.7 nM | 6 of 6 | 1 of 18 |
| KMSMSWPYDDLNKNSVA | NASTRMQ | QQYHRLPLS | 1.8 nM | 6 of 6 | 3 of 18 |
| KLSQWYWYESRNKNSVA | QASTREV | QQYWRLPLS | 1.8 nM | 6 of 6 | 0 of 18 |
| TIAQSMLYLSNSKNSIA | QAETRES | QQYHRLPIS | 1.9 nM | 6 of 6 | 0 of 18 |
| KFEQKVDYEHRTKNSVA | NASTRES | QQYHRLPLS | 2.1 nM | 6 of 6 | 3 of 18 |
| KLSQLGLYEQRNCNSVA | SASTRCS | QQYHRLPLS | 2.5 nM | 6 of 6 | 1 of 18 |
| KLQQSGLYGSRNKNSVA | EASTRLV | QAYHRLPLS | 2.6 nM | 6 of 6 | 0 of 18 |
| KVSQGMWYESRMKNSVA | DASQRES | QQYHRLPLQ | 2.9 nM | 6 of 6 | 0 of 18 |
| NLNTEYYTGTSNWDNIA | HGSMVEA | QQYFQLPIQ | 3.1 nM | 6 of 6 | 1 of 18 |
| SISVFQNMSTQGNNSIA | GAEQKVH | QQYMRLPLY | 3.2 nM | 6 of 6 | 0 of 18 |
| KLPQSTMQESVSKNSVA | ELSTRGS | QQYHRLPLS | 3.3 nM | 6 of 6 | 0 of 18 |
| HLSQSTDLEMVHKNSIA | DLMTRES | QQYHRLPLS | 3.6 nM | 6 of 6 | 4 of 18 |
| WLSMSVMQESRNKNAVA | SASTREL | QQYHRLPLS | 3.7 nM | 6 of 6 | 1 of 18 |
| MLSYNLHDMGRNKNSVA | EMNKSTT | QDYHRLPLA | 4.3 nM | 6 of 6 | 0 of 18 |
| QLLMATMQETYHKNSVA | HAETRED | QSYHRLPLS | 4.4 nM | 6 of 6 | 0 of 18 |
| TIGQSVHETTRIKNSVA | HASMRED | QQYDRLPLS | 4.5 nM | 6 of 6 | 0 of 18 |
| TIAESMLYLSNLKNSIA | QAETRED | QQYHRLPIS | 4.6 nM | 6 of 6 | 1 of 18 |
| IVSQLMLWGMHAKNSIA | EATMRTN | QQYDRLPLF | 4.6 nM | 6 of 6 | 0 of 18 |
| QTTAFYQHGDDQNQAMA | DVTMRDQ | QQYSRLPLS | 4.8 nM | 6 of 6 | 0 of 18 |
| HIGGVLEGENVKGRSVA | HMNTRVD | QQYDRLPLS | 4.9 nM | 6 of 6 | 0 of 18 |
| KLAMILSMEAGTYHGVA | DANHKAD | QQYNRLPLS | 5.4 nM | 6 of 6 | 0 of 18 |
| SVSNLGMVPSVWENSIA | DTEIVEE | QQYSRLPLL | 5.7 nM | 6 of 6 | 0 of 18 |
| RLSQSVLQEERNDNSVA | NASTRCS | QQYHRLPLS | 5.9 nM | 6 of 6 | 3 of 18 |
| IISQVDAYLSRNTNSIA | DQTTRGS | QQYDRLPLS | 7.5 nM | 6 of 6 | 0 of 18 |
| HMSMLTLGGMRARNSVA | QMTTREN | QQYDRLPLT | 7.6 nM | 6 of 6 | 0 of 18 |
| MISDLMLYGSRNRNPIA | NASTREY | QQYHRLPLS | 8.2 nM | 6 of 6 | 1 of 18 |
| KISQMVKVGMTHGNSIA | EEQTRAK | QQYHRLPLA | 8.9 nM | 6 of 6 | 1 of 18 |
| KLTTQVGHQMDHKNSIA | EVDMVAQ | QQYMHLPLI | 9.2 nM | 6 of 6 | 3 of 18 |
| KLRQVTGYESYLKNSVA | QTSTRAE | QDYHRLPLS | 9.5 nM | 6 of 6 | 1 of 18 |
| MLYGLTVSMSKNKNNVA | EMTTREK | QQYDRLPLI | 9.8 nM | 6 of 6 | 0 of 18 |
| KISQTVLYQGRLANAVA | QMSTREN | QQYDRLPLS | 12 nM | 6 of 6 | 0 of 18 |
| KISQNMGETQRNKHSVA | EVSLVPD | QQYWRLPLS | 13 nM | 6 of 6 | 1 of 18 |
| KVSDSAQFLSRNRNSVA | DNSTRGS | QQYHRLPLS | 13 nM | 6 of 6 | 4 of 18 |
| HMNKFMSEIGGARNSIA | GADHLAQ | QHYHRLPLS | 13 nM | 6 of 6 | 5 of 18 |
| QITGSIYDKDEWGKAIA | AEDQREL | QQYFKLPLS | 16 nM | 6 of 6 | 3 of 18 |
| MLTWGDDHTTGHQNAIA | HAHERAT | QQYALLPLS | 17 nM | 6 of 6 | 5 of 18 |
| MISMNIYGAYRARDNVA | HASNREN | QCYDRLPLS | 20 nM | 4 of 6 | 0 of 18 |
| MLSQMTGLGQHAKNSVA | QASMRFN | QQYFRLPLI | 21 nM | 6 of 6 | 0 of 18 |
| KLSQITGHMSVSKNNVA | EMVTREN | QQYDRLPLS | 24 nM | 3 of 6 | 1 of 18 |
| KQSMSVMMGSRNKNSVA | SAHKRES | QQYHRLPLS | 32 nM | 5 of 6 | 1 of 18 |
| MMSQVSGSGTRHRNNVA | QTSTREP | QQYDRLPLV | 33 nM | 6 of 6 | 0 of 18 |
| KLLQEVTGRMQNRNSVA | HNSTRED | QQYDRLPLI | 54 nM | 6 of 6 | 1 of 18 |
| MFSDEKYAYENQANSIA | EKTELVF | QDYHRLPFA | 54 nM | 6 of 6 | 0 of 18 |
| KISQMQRVGSTHGNSIA | EEATRAK | QQYHRLPLF | 70 nM | 6 of 6 | 0 of 18 |
| KLMQSMEYESRNSNSVA | QASTREH | QQYHRLPLM | 90 nM | 4 of 6 | 0 of 18 |
| SIETLSQGMRLNWSAVA | EAHTLVQ | QYYARLPLS | 140 nM | 1 of 6 | 0 of 18 |
| IFSQSVLMGNMTRNSVA | QANERFN | QQYDRLPLI | 290 nM | 6 of 6 | 1 of 18 |
| KLQQFYRMESRNKNSVA | DNSTRES | QDYDRLPLS | 1.1 µM | 1 of 6 | 1 of 18 |
| HMNKFMSQIGGARNNVA | GDTTLAQ | QHYHRLPLS | 1.7 µM | 3 of 6 | 1 of 18 |
| KLSQYVGGESRNKSSLA | DNSTRDS | QQYERLPLS | 3.0 µM | 2 of 6 | 1 of 18 |
| KLSSITGTEKVHGNNVA | EMETRER | QQYNRLPLA | no signal | 0 of 6 | 1 of 18 |

Repeated from above, the 6 best binders with a signal in all replicates:

| CDR-L1 | CDR-L2 | CDR-L3 | Kd | detected | empty controls |
|---|---|---|---|---|---|
| KIDQWKLGESRNKNSVA | DASQRMS | QQYHRLPLS | 290 pM | 6 of 6 | 1 of 18 |
| ALSQSMDMTSRNKNNVA | DLSTREN | QQYHRLPLS | 500 pM | 6 of 6 | 1 of 18 |
| RLNVFQNAITQQNNNIA | QANQKVH | QQYMRLPLY | 540 pM | 6 of 6 | 0 of 18 |
| KLSQSDGYQARNSNSVA | HASTRED | QQYHRLPLS | 750 pM | 6 of 6 | 0 of 18 |
| LMSQSELLESRNHNSVA | DASTRMD | QQYHRLPLS | 750 pM | 6 of 6 | 0 of 18 |
| KLSSVTGHMSMAKNNVA | EMVTREN | QQYNRLPLS | 1.0 nM | 6 of 6 | 1 of 18 |